Assay results taken from PubChem BioAssay (EPA / NIEHS).
Values joined by “and” are separate entries in the source; they are usually repeats but may differ in a detail not shown here. Identical values can stand only once. The entries are a selection whose mix differs from that of the whole data set. Results filed as inconclusive are left out. Some structures have more than one record in an assay (separate samples or runs), and their calls can disagree. Active and inactive are the calls of the source. Rule for the calls: active = hit-call score of the fitted dose curve at least 0.9, where 1 is the maximum; inconclusive = response in the unintended direction; inactive = score below 0.9.

Protein sequences, listed by entry. Tags and fused reporters are not part of them. Lines headed by an entry give the natural chain unless they say otherwise; changes in a name come on top.
UniProt P34969, whole entry, looked up: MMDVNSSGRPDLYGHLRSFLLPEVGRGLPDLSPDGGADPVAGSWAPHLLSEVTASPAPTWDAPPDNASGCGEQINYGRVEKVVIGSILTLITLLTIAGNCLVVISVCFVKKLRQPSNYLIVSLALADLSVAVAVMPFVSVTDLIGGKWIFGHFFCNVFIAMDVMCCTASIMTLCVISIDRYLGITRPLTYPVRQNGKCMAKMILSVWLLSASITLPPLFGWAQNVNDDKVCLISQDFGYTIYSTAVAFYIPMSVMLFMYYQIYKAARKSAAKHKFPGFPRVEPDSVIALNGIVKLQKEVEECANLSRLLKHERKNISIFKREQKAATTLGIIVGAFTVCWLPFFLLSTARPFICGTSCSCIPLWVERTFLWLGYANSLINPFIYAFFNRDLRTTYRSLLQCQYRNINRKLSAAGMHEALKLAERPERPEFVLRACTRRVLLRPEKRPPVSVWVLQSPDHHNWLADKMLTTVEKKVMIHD
UniProt P21731: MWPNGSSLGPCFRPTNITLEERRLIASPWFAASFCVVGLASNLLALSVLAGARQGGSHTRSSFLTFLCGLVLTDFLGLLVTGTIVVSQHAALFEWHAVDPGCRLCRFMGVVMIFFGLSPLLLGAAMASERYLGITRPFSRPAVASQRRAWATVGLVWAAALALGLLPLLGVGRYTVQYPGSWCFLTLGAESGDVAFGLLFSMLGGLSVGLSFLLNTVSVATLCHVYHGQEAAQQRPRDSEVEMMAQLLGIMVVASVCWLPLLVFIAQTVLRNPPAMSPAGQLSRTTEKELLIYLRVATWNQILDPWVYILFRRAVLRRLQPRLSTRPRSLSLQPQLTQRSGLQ
UniProt P16177, whole entry, looked up: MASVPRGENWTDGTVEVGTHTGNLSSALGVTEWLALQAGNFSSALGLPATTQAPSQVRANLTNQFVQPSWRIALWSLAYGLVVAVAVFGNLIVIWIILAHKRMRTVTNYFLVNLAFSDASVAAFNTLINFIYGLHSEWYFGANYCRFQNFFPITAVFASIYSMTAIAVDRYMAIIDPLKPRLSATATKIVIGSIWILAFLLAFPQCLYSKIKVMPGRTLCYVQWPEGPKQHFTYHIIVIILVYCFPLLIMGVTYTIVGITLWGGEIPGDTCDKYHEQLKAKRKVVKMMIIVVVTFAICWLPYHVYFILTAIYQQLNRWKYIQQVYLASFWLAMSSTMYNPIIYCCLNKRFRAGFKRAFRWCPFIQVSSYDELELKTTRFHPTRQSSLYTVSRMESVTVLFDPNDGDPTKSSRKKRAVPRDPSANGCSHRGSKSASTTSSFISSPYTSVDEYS
UniProt P24530: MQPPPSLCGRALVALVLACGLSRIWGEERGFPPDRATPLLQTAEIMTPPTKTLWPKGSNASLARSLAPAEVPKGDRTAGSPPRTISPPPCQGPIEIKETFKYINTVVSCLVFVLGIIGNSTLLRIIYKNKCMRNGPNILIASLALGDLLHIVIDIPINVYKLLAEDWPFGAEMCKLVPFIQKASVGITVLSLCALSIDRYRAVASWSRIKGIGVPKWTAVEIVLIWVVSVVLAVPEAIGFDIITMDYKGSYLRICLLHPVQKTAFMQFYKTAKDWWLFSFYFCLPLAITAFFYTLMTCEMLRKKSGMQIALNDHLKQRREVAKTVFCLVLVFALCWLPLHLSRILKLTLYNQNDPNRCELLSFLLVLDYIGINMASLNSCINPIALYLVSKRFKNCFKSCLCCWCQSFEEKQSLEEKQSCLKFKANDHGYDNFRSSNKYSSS
UniProt Q15722: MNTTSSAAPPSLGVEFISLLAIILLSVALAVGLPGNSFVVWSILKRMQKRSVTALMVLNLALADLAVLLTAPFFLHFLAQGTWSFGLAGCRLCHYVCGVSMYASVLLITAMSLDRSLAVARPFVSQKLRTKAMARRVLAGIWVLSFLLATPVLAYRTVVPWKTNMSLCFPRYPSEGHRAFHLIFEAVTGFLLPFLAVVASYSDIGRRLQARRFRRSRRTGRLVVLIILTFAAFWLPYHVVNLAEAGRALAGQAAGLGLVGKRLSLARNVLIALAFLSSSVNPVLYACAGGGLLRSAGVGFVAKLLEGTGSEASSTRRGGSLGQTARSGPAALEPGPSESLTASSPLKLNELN
UniProt P43140: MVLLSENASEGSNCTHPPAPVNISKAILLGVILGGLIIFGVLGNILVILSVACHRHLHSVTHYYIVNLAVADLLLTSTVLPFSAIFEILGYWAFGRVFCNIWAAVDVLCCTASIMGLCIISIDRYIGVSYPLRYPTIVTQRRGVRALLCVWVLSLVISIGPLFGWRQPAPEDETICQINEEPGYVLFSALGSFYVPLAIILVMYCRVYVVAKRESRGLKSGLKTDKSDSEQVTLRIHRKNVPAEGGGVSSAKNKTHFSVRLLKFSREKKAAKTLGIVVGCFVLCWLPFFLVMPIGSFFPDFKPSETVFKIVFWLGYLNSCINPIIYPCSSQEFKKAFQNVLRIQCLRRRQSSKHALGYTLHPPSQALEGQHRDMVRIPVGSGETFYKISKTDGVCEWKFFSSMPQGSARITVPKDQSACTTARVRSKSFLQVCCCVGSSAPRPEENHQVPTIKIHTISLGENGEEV
UniProt P35372, whole entry, looked up: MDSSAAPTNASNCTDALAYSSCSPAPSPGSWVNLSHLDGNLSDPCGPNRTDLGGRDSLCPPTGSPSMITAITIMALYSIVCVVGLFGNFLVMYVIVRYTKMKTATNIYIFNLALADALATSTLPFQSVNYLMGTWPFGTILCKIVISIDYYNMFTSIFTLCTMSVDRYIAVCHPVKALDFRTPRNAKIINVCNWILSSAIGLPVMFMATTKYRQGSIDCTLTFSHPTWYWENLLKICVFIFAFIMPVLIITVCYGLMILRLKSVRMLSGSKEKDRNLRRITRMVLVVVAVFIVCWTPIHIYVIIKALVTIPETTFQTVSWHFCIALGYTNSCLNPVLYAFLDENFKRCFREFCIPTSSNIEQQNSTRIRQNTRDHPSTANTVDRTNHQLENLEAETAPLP
UniProt O70528: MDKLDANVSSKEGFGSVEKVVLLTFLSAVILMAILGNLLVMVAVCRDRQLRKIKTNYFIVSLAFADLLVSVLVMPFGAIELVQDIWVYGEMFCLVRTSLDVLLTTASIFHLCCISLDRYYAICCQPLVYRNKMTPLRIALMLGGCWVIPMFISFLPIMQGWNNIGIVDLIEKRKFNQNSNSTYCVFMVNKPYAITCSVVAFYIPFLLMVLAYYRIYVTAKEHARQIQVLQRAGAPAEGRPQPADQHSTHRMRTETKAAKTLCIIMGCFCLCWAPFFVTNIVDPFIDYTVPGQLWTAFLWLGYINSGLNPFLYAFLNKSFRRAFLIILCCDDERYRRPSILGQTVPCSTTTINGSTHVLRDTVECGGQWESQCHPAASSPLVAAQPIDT
UniProt P18090, whole entry, looked up: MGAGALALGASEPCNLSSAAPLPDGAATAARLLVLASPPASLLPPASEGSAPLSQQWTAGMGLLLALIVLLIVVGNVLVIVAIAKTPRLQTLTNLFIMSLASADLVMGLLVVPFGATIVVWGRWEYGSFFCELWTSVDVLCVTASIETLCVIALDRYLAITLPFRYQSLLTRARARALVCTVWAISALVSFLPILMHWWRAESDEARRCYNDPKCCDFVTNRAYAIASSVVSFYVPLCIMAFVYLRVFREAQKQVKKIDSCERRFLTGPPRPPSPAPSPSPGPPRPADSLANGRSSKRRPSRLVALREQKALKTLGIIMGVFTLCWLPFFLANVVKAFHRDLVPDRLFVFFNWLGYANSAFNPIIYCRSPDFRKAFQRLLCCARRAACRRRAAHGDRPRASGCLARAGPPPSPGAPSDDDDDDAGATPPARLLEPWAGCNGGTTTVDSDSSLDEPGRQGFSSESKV
UniProt P20789, whole entry, looked up: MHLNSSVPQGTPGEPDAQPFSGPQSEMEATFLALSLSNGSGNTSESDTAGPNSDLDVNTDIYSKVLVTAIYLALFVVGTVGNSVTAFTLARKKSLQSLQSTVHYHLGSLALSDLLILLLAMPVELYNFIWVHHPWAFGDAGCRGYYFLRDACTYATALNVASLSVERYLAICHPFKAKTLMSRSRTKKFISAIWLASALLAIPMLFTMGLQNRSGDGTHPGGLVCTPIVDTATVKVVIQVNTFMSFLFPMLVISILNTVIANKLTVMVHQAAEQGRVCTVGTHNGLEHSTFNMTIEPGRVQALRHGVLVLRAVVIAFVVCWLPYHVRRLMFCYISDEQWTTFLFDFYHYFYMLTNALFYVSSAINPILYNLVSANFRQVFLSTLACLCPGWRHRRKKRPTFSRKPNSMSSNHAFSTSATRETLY
UniProt Q15822: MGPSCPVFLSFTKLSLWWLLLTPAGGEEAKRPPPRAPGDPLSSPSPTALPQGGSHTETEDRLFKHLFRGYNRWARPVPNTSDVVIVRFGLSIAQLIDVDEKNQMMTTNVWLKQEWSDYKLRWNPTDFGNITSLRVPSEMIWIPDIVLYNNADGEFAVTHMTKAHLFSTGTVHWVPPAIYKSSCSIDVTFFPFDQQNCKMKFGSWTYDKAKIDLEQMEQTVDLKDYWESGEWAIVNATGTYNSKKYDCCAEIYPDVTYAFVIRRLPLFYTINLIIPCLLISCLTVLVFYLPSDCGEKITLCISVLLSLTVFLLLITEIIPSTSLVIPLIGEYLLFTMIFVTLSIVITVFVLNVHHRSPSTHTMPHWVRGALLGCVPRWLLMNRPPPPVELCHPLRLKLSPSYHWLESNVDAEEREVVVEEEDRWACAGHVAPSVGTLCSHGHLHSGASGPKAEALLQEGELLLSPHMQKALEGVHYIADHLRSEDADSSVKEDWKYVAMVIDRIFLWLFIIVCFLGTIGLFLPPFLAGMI
UniProt P08219: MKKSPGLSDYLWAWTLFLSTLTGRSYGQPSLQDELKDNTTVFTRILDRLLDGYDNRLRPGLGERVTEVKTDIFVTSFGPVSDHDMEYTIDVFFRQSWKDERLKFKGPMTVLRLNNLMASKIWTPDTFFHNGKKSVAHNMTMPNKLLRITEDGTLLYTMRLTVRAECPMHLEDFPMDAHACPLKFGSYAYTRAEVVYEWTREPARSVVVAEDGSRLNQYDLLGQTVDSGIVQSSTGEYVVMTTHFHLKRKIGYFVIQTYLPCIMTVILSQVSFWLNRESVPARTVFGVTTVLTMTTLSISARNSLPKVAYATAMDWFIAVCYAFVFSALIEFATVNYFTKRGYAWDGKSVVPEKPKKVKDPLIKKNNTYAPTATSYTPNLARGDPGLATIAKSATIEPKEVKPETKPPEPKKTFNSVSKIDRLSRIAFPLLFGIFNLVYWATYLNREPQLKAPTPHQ
UniProt P46098, whole entry, looked up: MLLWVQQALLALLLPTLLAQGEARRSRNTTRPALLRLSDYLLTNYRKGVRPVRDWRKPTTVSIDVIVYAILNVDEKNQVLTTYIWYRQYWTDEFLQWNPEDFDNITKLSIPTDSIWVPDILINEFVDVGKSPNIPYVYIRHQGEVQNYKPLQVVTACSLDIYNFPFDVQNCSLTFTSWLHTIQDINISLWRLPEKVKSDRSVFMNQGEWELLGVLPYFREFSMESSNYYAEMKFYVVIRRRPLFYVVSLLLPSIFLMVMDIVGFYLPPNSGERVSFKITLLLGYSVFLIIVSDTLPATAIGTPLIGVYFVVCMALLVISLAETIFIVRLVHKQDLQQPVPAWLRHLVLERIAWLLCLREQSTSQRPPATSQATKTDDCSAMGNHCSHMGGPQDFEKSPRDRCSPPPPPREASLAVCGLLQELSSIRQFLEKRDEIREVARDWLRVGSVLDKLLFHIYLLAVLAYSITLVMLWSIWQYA
UniProt Q05941, whole entry, looked up: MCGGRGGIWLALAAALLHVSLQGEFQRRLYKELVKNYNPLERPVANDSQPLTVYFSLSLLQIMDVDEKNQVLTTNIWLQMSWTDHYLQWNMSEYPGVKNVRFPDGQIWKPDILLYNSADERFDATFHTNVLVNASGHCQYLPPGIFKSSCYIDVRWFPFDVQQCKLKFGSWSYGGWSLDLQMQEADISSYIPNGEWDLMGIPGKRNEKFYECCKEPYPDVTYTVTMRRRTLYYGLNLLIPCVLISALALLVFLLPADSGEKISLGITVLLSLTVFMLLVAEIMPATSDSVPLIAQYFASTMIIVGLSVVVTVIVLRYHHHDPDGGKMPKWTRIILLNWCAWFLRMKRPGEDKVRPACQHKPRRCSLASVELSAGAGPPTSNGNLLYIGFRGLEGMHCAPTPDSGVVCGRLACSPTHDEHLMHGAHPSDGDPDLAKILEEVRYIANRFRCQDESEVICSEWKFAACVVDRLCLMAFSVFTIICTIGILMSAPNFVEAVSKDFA

Columns and labels:
[1] = molecular target: human Serotonin, 5-Hydroxytryptamine Receptor 7 (5HT7), HTR7 (gene 3363) (UniProt P34969); experiment: NVS_GPCR_h5HT7: NovaScreen (NVS) G Protein-Coupled Receptor Assay for human Serotonin, 5-Hydroxytryptamine Receptor 7 (5HT7) (AID 2283255);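 note: hits reduce specific radioligand binding relative to DMSO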
How it was run: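 Filter-bound radioactivity counted after 1 h, with loss of specific radioligand binding fitted against DMSO. Membrane protein came from CHO cells expressing human 5HT7. Chemicals were tested first at 25 uM in duplicate, then in concentration series if active.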

[2] = molecular target: human Thromboxane A2 Receptor (TXA2), TBXA2R (gene 6915) (UniProt P21731); experiment: NVS_GPCR_hTXA2: NovaScreen (NVS) G Protein-Coupled Receptor Assay for human Thromboxane A2 Receptor (TXA2) (AID 2283282);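 note: actives reduce bound radioligand signal relative to DMSO baseline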
How it was run: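 Filter scintillation counting of bound radioligand, human platelet protein, 1 h exposure. Single-concentration duplicates (25 uM) first, concentration-response follow-up for actives. Binding loss scored against DMSO baseline.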

[3] = molecular target: rat Neurokinin-3 Receptor (NK3), Tacr3 (gene 24808) (UniProt P16177); experiment: NVS_GPCR_rNK3: NovaScreen (NVS) G Protein-Coupled Receptor Assay for rat Neurokinin-3 Receptor (NK3) (AID 2283310)
How it was run: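 Filter-based radioligand displacement on rat cortex membrane preparations, read by scintillation 2 h post-dose. Chemicals first tested in duplicate at 25 uM; actives followed up in concentration series with a 50 uM maximum.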

[4] = molecular target: human Endothelin Receptor Type B (ETB), EDNRB (gene 1910) (UniProt P24530); experiment: NVS_GPCR_hETB: NovaScreen (NVS) G Protein-Coupled Receptor Assay for human Endothelin Receptor Type B (ETB) (AID 2283267)
How it was run: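 Filter-based scintillation readout of radioligand displacement, 4 h, using membranes from human astrocytoma cells. Actives from a 25 uM duplicate screen were retested in concentration-response (top 50 uM) relative to DMSO baseline.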

[5] = molecular target: human Leukotriene B4 Receptor 1 (LTB4-BLT1), LTB4R (gene 1241) (UniProt Q15722); experiment: NVS_GPCR_hLTB4_BLT1: NovaScreen (NVS) G Protein-Coupled Receptor Assay for human Leukotriene B4 Receptor 1 (LTB4-BLT1) (AID 2283271)
How it was run: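 Cell-free human neutrophil receptor preparation, 1 h exposure, radioligand binding read by filter scintillation counting. Single 25 uM duplicate screen, then concentration series topping at 50 uM; binding loss scored against DMSO baseline.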

[6] = molecular target: mouse Cholecystokinin, CCK1 Receptor (CCKA), Cckar (gene 12425) (UniProt O08786); experiment: NVS_GPCR_mCCKAPeripheral: NovaScreen (NVS) G Protein-Coupled Receptor Assay for mouse Cholecystokinin, CCK1 Receptor (CCKA) (AID 2283285)
How it was run: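 Chemicals were first screened in duplicate at 25 uM, with those meeting threshold (e.g., 30% inhibition) retested in singleton concentration series to 50 uM maximum. Binding of radioligand to mouse pancreatic membranes was read after 2 h by filtration and scintillation counting.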

[7] = test system: rabbit Platelet Activating Factor Receptor (PAF), gene 100354046; experiment: NVS_GPCR_rabPAF: NovaScreen (NVS) G Protein-Coupled Receptor Assay for rabbit Platelet Activating Factor Receptor (PAF) (AID 2283287)
How it was run: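 Rabbit platelet membrane preparation; radioligand displacement read by filter-based scintillation counting 1 h after dosing, loss of signal versus DMSO. Primary screen in duplicate at 25 uM, actives followed up in concentration series.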

[8] = molecular target: rat Adrenergic, Alpha 1, Non-selective Receptor (Adra1), Adra1a (gene 29412) (UniProt P43140); experiment: NVS_GPCR_rAdra1_NonSelective: NovaScreen (NVS) G Protein-Coupled Receptor Assay for rat Adrenergic, Alpha 1, Non-selective Receptor (Adra1) (AID 2283289)
[9] = molecular target: human Opioid Receptor Mu (Opiate Mu), OPRM1 (gene 4988) (UniProt P35372); experiment: NVS_GPCR_hOpiate_mu: NovaScreen (NVS) G Protein-Coupled Receptor Assay for human Opioid Receptor Mu (Opiate Mu) (AID 2283290);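 note: hits lower bound tracer signal versus DMSO meaning displacement of the ligand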
How it was run: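 Radioligand displacement binding on membranes from CHO cells expressing the receptor, 2.5 h after dosing, filter-based scintillation counting; loss of signal vs DMSO baseline. Screened in duplicate at 25 uM, actives then run in concentration series.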

[10] = molecular target: guinea pig Serotonin, 5-Hydroxytryptamine Receptor 4 (5HT4), HTR4 (gene 100135548) (UniProt O70528); experiment: NVS_GPCR_g5HT4: NovaScreen (NVS) G Protein-Coupled Receptor Assay for guinea pig Serotonin, 5-Hydroxytryptamine Receptor 4 (5HT4) (AID 2283294)
How it was run: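 Compounds first screened in duplicate at 25 uM, actives followed up in concentration series. Binding measured as displacement of specific radioligand from guinea pig striatal membranes, 1 h, filter-based scintillation read-out versus DMSO baseline.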

[11] = molecular target: rat Adrenergic Receptor, Beta (Adrb), Non-selective Binding, Adrb1 (gene 24925) (UniProt P18090); experiment: NVS_GPCR_rAdrb_NonSelective: NovaScreen (NVS) G Protein-Coupled Receptor Assay for rat Adrenergic Receptor, Beta (Adrb), Non-selective Binding (AID 2283298)
How it was run: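 Rat cortical membranes incubated 1 h with beta-adrenergic radioligand and test chemical; bound ligand measured by filtration and scintillation counting. Screen at 25 uM duplicate, then concentration series with 50 uM maximum; loss of signal versus DMSO.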

[12] = molecular target: rat Neurotensin Receptor (NTS), Ntsr1 (gene 366274) (UniProt P20789); experiment: NVS_GPCR_rNTS: NovaScreen (NVS) G Protein-Coupled Receptor Assay for rat Neurotensin Receptor (NTS) (AID 2283308)
How it was run: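 Single-point duplicates at 25 uM, then concentration series to 50 uM max for hits, measured radioligand displacement on rat forebrain membrane preparations. Bound label counted by filtration scintillation at 1 h; signal loss relative to DMSO fitted.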

[13] = molecular target: human Neonicotinoid receptor (NNR), CHRNA2 (gene 1135) (UniProt Q15822); experiment: NVS_LGIC_hNNR_NBungSens: NovaScreen (NVS) Ligand-Gated Ion Channel Assay for human Neonicotinoid receptor (NNR) (AID 2283313)
How it was run: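 Compounds first screened in duplicate at 25 uM, then actives re-tested in single-replicate dose series up to 50 uM. Binding measured as displacement of specific radioligand from neuroblastoma membrane receptors after 2 h, scintillation read on filters.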

[14] = NVS_IC_rCaDHPRCh_L: NovaScreen (NVS) Ion Channel Assay for rat Calcium Channel, Type L, Dihydropyridine Site (CaDHPRCh_L) (AID 2283320)
How it was run: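 Rat cortex membrane preparation; dihydropyridine-site radioligand displacement read 1 h post-dose by filtration and scintillation. Primary single-point screen 25 uM in duplicate, then concentration series to 50 uM maximum; DMSO as negative control.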

[15] = molecular target: bovine Gamma-Aminobutyric Acid Type A Receptor BDZ, alpha 1 site (GABARa1), GABRA1 (gene 780973) (UniProt P08219); experiment: NVS_LGIC_bGABARa1: NovaScreen (NVS) Ligand-Gated Ion Channel Assay for bovine Gamma-Aminobutyric Acid Type A Receptor BDZ, alpha 1 site (GABARa1) (AID 2283321)
How it was run: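 Bovine cortex membrane preparation, benzodiazepine site on GABA-A alpha1; specific radioligand displacement read after 0.75 h by filtration and scintillation. Screen at 25 uM, then singleton titrations up to 50 uM; DMSO baseline.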

[16] = molecular target: human Serotonin, 5-Hydroxytryptamine Receptor 3 (5HT3), HTR3A (gene 3359) (UniProt P46098); experiment: NVS_LGIC_h5HT3: NovaScreen (NVS) Ligand-Gated Ion Channel Assay for human Serotonin, 5-Hydroxytryptamine Receptor 3 (5HT3) (AID 2283325)
How it was run: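 Initially tested at 25 uM in duplicate, then up to 50 uM in concentration-response for actives, compounds competed with a radioligand for HEK293-derived human 5-HT3 receptor. Bound counts were measured by filtration and scintillation at 1 h; loss of signal versus DMSO.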

[17] = molecular target: D(1A) dopamine receptor (Homo sapiens) (UniProt P21728); experiment: NVS_GPCR_hDRD1: NovaScreen (NVS) G Protein-Coupled Receptor Assay for human Dopamine Receptor D1 (DRD1) (AID 2283269)
How it was run: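 Radioligand displacement binding on membranes/protein extracted from HEK293 expressing human D1, cell-free; read 1 h after dosing by filter-based scintillation counting. Primary screen in duplicate at 25 uM, actives followed up in concentration series; signal loss versus DMSO baseline.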

[18] = molecular target: rat Neonicotinoid receptor (NNR), Chrna7 (gene 25302) (UniProt Q05941); experiment: NVS_LGIC_rNNR_BungSens: NovaScreen (NVS) Ligand-Gated Ion Channel Assay for rat Neonicotinoid receptor (NNR) (AID 2283315)
How it was run: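 Rat cortical membrane preparation incubated 2.5 h with tritiated or iodinated radioligand and test chemical. Bound radioactivity was filtered and counted by scintillation, and displacement was analysed against DMSO.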

[19] = molecular target: Sodium channel protein type 1 subunit alpha (Rattus norvegicus) (UniProt P04774); experiment: NVS_IC_rNaCh_site2: NovaScreen (NVS) Ion Channel Assay for rat Sodium Channel, Site 2 (NaCh) (AID 2283322);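 note: hit means loss of radioligand binding signal relative to DMSO so AC50 marks displacement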
How it was run: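 Initial duplicate single-point testing at 25 uM, followed by concentration-response runs for actives. Binding of radioligand to rat forebrain membranes quantified after 1 h via filter-based radiodetection.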

Measured: AC50

CN(C(=O)Cc1cccc2occc12)[C@H]1CC[C@@]2(CCCO2)C[C@@H]1N1CCCC1
inactive: [1] | [2] | [3]

CC(C)OP(=S)(OC(C)C)SCCNS(=O)(=O)c1ccccc1
active: [6] 6.58 µM | [7] 1.95 µM and 4.12 µM and 2.75 µM | [15] 2.16 µM and 1.75 µM and 3.1 µM
inactive: [4] | [5] | [2] | [6] | [8] | [9] | [10] | [11] | [12] | [13] | [14] | [16]

O=C1C2CC=CCC2C(=O)N1SC(Cl)(Cl)C(Cl)Cl (configuration not stated)
active: [17] 8.83 µM

O=[N+]([O-])c1ccc([N+](=O)[O-])cc1
inactive: [17]

O=C(Cl)Oc1ccccc1
inactive: [18]

CCCCOP(OCCCC)OCCCC
active: [19] 4.96 µM
